Measurements taken from patent US9481674B1, “Dihydropyrrolopyridine inhibitors of ROR-gamma” (Vitae Pharmaceuticals, Inc., priority 2016, dated 2016).

Chains of the proteins cited; added tags and fusions are not shown. Residues count along the entry.
UniProt P51449, 1-497 isoform 2: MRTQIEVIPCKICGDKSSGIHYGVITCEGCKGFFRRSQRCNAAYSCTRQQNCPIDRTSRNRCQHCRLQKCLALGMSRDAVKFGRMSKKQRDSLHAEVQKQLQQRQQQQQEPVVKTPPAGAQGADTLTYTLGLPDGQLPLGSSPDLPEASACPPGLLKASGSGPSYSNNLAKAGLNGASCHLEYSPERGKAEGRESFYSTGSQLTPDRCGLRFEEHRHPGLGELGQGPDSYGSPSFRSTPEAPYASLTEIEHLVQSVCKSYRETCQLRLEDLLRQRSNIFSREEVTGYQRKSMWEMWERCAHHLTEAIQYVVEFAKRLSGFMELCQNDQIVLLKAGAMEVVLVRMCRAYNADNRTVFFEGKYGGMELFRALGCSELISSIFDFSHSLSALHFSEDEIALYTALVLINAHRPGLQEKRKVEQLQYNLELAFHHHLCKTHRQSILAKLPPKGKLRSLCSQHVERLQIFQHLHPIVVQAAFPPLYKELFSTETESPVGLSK
UniProt P51449, 269-508 limits assumed: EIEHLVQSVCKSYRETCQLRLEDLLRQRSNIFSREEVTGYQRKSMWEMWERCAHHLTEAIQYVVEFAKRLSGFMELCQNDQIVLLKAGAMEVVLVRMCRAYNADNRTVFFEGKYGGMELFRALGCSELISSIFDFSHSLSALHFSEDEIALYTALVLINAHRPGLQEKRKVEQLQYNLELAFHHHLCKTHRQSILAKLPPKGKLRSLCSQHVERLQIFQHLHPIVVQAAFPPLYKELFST

Columns and labels:
[1] = test system: IL-17A production; assay: Human Whole Blood Assay (Assay 3); format: cell-based; settings: read-out: 50% Human Whole Blood Assay IC50, nM* (Assay 3), 50% blood/media, CytoStim, 48 h
Procedure: Human Whole Blood Assay (Assay 3)
Compounds of the invention were tested in the human whole blood assay to measure their effects on IL-17A production as determined by cytokine secretion into 50% blood/media supernatant. Mixtures of sodium heparinized whole blood (isolated from healthy human donors) and the T cell activator CytoStim, in the presence or absence of compound, were plated in sterilized, tissue culture-treated 24-well plates. Specifically, the mixtures in each well were as follows: (1) 500 μL of whole blood, (2) 250 μL of compound diluted into RPMI-1640 media containing 10% HyClone™ FCS (Thermo Fisher Scientific, Waltham, Mass.), Gibco® Pen/Strep and Gibco® NEAA (Life Technologies, Grand Island, N.Y.), and (3) 250 μL of CytoStim (Miltenyi Biotech, Germany) diluted to a final concentration of 10 μL/mL in complete cell culture medium.
IL-17A cytokine expression was determined using 25 μL of the transferred supernatant diluted with 25 μL of Diluent 43 from the Human IL-17A V-PLEX™ kit (cat. # K151RFD-4, Meso Scale Discovery, Rockville, Md.). The assay was performed according to the manufacturer's instructions using included reagents. The IL-17A V-PLEX™ plates were read using the Meso Scale Discovery Imager (Model 1200).

[2] = target: recombinant RORγ Ligand Binding Domain (LBD) protein (Homo sapiens, UniProt P51449); assay: Radio-Ligand RORγ Binding Assay (Assay 1); settings: read-out: RORγ Binding Ki Range* (nM) (Assay 1); cell-free competition with 25-hydroxy[26,27-3H]-cholesterol
[3] = target: full-length RORγt in Jurkat cells (Homo sapiens, UniProt P51449); settings: read-out: RORγt5X IC50 Range* (nM) (Assay 2), luciferase reporter

CC(C)[C@H]1c2ncc(C(=O)N[C@@H](CO)c3ccc(S(C)(=O)=O)cc3)cc2CN1C[C@H]1CC[C@H](C(F)(F)F)CC1
IC50 [1]: 100 to 200 nM | Ki [2]: < 100 nM | IC50 [3]: < 100 nM
